Among the data in ChEMBL document CHEMBL4431318, “Design, synthesis and biological evaluation of novel 5-fluoro-1H-benzimidazole-4-carboxamide derivatives as potent PARP-1 inhibitors” (Bioorg Med Chem Lett, 2016) are PF50 values, retold here.

Amino acid sequences for entries named in this document (tags omitted).
UniProt P09874, whole entry: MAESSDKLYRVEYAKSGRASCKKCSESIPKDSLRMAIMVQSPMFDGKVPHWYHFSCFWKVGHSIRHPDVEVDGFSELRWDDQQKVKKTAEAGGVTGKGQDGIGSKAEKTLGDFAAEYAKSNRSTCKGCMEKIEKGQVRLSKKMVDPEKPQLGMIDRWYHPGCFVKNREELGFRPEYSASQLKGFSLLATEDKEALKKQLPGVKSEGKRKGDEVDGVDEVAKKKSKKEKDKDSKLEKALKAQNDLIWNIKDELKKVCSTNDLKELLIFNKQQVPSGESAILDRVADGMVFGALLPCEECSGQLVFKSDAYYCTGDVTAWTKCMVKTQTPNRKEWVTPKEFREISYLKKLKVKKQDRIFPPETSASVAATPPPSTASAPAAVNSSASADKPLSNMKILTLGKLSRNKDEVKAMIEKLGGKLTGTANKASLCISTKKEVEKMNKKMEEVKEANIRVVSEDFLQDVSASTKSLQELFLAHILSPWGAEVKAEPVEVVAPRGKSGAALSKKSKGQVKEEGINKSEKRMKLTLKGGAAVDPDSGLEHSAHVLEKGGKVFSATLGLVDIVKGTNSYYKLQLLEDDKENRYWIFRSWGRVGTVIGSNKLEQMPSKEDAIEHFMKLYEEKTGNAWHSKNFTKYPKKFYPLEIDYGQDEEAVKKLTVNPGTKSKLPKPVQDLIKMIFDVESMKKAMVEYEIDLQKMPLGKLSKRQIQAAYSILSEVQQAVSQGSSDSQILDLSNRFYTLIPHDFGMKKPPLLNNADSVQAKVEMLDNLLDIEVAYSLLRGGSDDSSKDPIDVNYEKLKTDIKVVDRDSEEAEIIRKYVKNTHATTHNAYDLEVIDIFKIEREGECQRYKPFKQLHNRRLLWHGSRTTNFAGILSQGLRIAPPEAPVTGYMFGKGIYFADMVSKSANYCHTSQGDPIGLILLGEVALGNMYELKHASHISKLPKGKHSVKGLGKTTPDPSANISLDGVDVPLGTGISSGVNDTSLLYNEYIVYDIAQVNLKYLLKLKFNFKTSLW

In this assay the target is Poly [ADP-ribose] polymerase 1 (Homo sapiens, UniProt P09874). The note with it: A549.

The compound `CCCN1CCC(c2nc3c(C(N)=O)c(F)ccc3[nH]2)CC1` had a PF50 of 1.9.
`CN1CCC[C@@]1(C)c1nc2c(C(N)=O)c(F)ccc2[nH]1` had a PF50 of 1.
As for `NC(=O)c1c(F)ccc2[nH]c(-c3ccc(N4CCNCC4)cc3)nc12`, the figure is 1.6; as for `NC(=O)c1c(F)ccc2[nH]c(C3CCNCC3)nc12`, 0.8; as for `NC(=O)c1c(F)ccc2[nH]c(-c3ccc(N4CCOCC4)cc3)nc12`, 2.3.
As for `C[C@]1(c2nc3c(C(N)=O)c(F)ccc3[nH]2)CCCN1`, the figure is 0.9.
